Measured affinities in a library of Ab-14 heavy chain variants

Data: MIT Lincoln Laboratory AlphaSeq set, Li et al. 2023, doi:10.1038/s41467-023-39022-2, as distributed in FLAb.

Antigen: PDVDLGDISGINAS, a 14-residue peptide of the SARS-CoV-2 spike HR2 region.

The variants keep the light chain, the linker and the frameworks of Ab-14 (scFv order VH, a (GGGGS)3 linker, VL).
VH: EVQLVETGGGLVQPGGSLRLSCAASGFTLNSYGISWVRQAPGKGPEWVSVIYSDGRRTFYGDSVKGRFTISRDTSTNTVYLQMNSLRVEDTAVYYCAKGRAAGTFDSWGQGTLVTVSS
VL: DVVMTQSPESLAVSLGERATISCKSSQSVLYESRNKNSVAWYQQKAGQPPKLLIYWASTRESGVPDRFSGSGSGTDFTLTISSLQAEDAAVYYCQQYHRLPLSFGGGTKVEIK

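The starting antibody came from a phage panning campaign against this peptide. The variants were designed computationally from a first round of random CDR variants and then made and measured. Several design methods are mixed in this list. In AlphaSeq, yeast of one mating type display the scFv and yeast of the other type display the target. Pairs that bind mate more often; barcode pairs of the diploids are counted by sequencing. Read counts were normalised to the haploid input and turned into Kd by a linear fit to BCL2-family pairs of known affinity, for each replicate. Mating was done six times.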

Variants are written as CDR1, CDR2 and CDR3 of the heavy chain (limits as in the source). Parent: GFTLNSYGIS, VIYSDGRRTFYGDSVK, GRAAGTFDS.
This list holds designs with at most six substitutions.
Kd is apparent (estimated from mating counts) and averaged on the log scale over replicates with a signal. Smaller is tighter.
An entry "nd" has no value in the source: the pair was not observed among the diploids in any replicate. This suggests poor binding but is not conclusive.

With GITINSYGIS, VIYSDGRRTFYGDSVK, GRNMGGFDE the result was nd (0 of 6 replicates).
With PFELNSYGIS, VIYADGRRTFYGDSVK, GKAAGTFDS the result was 29 nM (4 of 6 replicates).
With GFTLKSYGIS, VIYADGRRTFYGDSVK, GEAAGTFDS the result was 670 pM (6 of 6 replicates).
With GFTLNEYGIS, VIYSDGRRTFYPDSVK, GRFAGTFDS the result was 15 nM (6 of 6 replicates).
With GFTLNDYGIS, VIYSDGRRTFYADSVK, GRMAGTFIS the result was nd (0 of 6 replicates).
With GFDINSYGIS, VIYSDGRRTFYGDSVK, GRNAGTFDS the result was 810 pM (3 of 6 replicates).
With EFTLNSYGIS, VIYADGRRTFYGDSVK, GRTAGTFDS the result was 360 pM (6 of 6 replicates).
With GFNLNSYGIS, VIYSDGRRTFYIDSVK, GRAAGTFDS the result was 34 nM (10 of 12 replicates).
With RFTLNSYGIS, VIYSDGRRTFYNDSVK, GFAAGTFDS the result was nd (0 of 6 replicates).
With GFTLNEYGIS, VIYSDGRRTFYGDSVK, GRTAGTFCV the result was nd (0 of 6 replicates).
With GFTLNSYGIS, VIYSDGLRTFYMDSVK, GYAASTFDV the result was nd (0 of 6 replicates).
With GFTLNSYGYS, VIYSDGRRTMYGDSVK, GRAAAVFDS the result was nd (0 of 6 replicates).
With GETLNEYGIS, VIYSDGRRTFYGDSVK, GRAAVTFDK the result was 200 nM (3 of 6 replicates).
With GFELNEYGIS, VIYSDGRRTFYGDAVK, GRNAGTFDS the result was 1.2 nM (6 of 6 replicates).
With GFTLNDYGIT, VIYSDGRRKFYGDSVK, GRAAGTFDS the result was 59 nM (6 of 6 replicates).
With GDSLNSYGIS, VIYSDGRRTFYGDSVK, GRTAGTFDS the result was 490 nM (3 of 6 replicates).
With KFDLNSYGIS, VIYSDGRRTFYIDSVK, GQAAGTFDS the result was 36 nM (4 of 6 replicates).
With GFTLNSYGIS, VIYSDGRRTFYGDSVK, GRATGTVDS the result was nd (0 of 6 replicates).
With GFTLNEYGIS, VIYSDGVRTFYSDSVK, GRAGGTFDS the result was 7.3 nM (6 of 6 replicates).
With GFTLNSYGIS, VIYEDGRRTFYHDSVK, GRAAGTFDS the result was nd (0 of 6 replicates).
With GFSLNSYGIS, VIYSDGRRTFYADSVK, GQTAGTFDL the result was 950 pM (6 of 6 replicates).
With GFTNNSYGIS, VIYSDGRRTFYQDSVK, GSAAGTFDD the result was 2.3 nM (6 of 6 replicates).
With GFDLNSYGIS, VIYSDGRRTFYDDSVK, GRTAGTFDS the result was 1.8 nM (6 of 6 replicates).
With GFDLNSYGIS, VIYSDGRRSFYGDSVK, GREAGTFDS the result was 820 pM (6 of 6 replicates).
With GFSLYEYGIS, VIYSDGRRTFYGDSVK, GRAAGTFDQ the result was 13 nM (6 of 6 replicates).
With GFTLNSYGIS, VIYSDGQRTFYSDSVK, GEAAGTFDS the result was 4.3 nM (6 of 6 replicates).
With SFELNSYGIS, VIYSDGRRTFYGDSVK, GKTAGTFDS the result was nd (0 of 6 replicates).
With GFDLNSYGIS, VIYSDGRRTFYGDSVK, GKAAGTFDW the result was 97 nM (5 of 6 replicates).
With GFTLNSYGIS, VIYSDGRRTFYADSVK, GLLAGTFDS the result was 34 nM (2 of 6 replicates).
With GFSLNDYGIS, VIYSDGRRTFYTDSVK, GRAAGTFDS the result was 2.2 nM (6 of 6 replicates).
With GFDINSYGIS, VIYSDGRRTFYGDSVK, GRAAGTFDS the result was 4.7 nM (6 of 6 replicates).
With GFTLNEYGIS, VIYADGRRTFYGDSVK, GRAAGTFDM the result was 540 pM (6 of 6 replicates).
With GFTLNEYGIS, VIYSDGRRTFYSDSVK, GREAGTFDT the result was 3.8 nM (6 of 6 replicates).
With GFDLNSYGIS, VIYSDGRRTFYSDSVK, GKAAGTFDD the result was 2.2 nM (6 of 6 replicates).
With RFNLKEYGIS, VIYSDGRRTFYGDSVK, GQAAGTFDS the result was 140 nM (1 of 6 replicates).
With GFELNSYGIS, VIYSDGRRTFYGDDVK, GSTAGTFDD the result was 3.5 nM (6 of 6 replicates).
With GFSLNSYGIS, VIYSDGRRTFYIDSVK, GMLAGTFDS the result was 2.3 nM (6 of 6 replicates).
With GFTLNEYGIS, VIYADGRRTFYGDSVK, GRAAGTFVS the result was 11 nM (1 of 6 replicates).
With GFTLNEYGIS, VIYSDGWRTFYSDSVK, GRAAGTFDS the result was 3.9 nM (6 of 6 replicates).
With GFTLNEYGIS, VIYSDGRRTFYGDAVK, GRAAVTFDK the result was 17 nM (5 of 6 replicates).
With GFSLNSYGIS, VIYSDGRRTFYKDSVK, GQAAGTFDL the result was 13 nM (6 of 6 replicates).
With GFELNSYGIS, VIYSDGQRTFYKDSVK, GRTAGTFDS the result was 13 nM (5 of 6 replicates).
With GFTLNSYGIS, VIYADGKRTFYGDSVK, GQAAGTFDL the result was 1.3 nM (6 of 6 replicates).

The 5 strongest on average among those seen in every replicate, once more:

CDR-H1	CDR-H2	CDR-H3	Kd (apparent)	detected
EFTLNSYGIS	VIYADGRRTFYGDSVK	GRTAGTFDS	360 pM	6 of 6
GFTLNEYGIS	VIYADGRRTFYGDSVK	GRAAGTFDM	540 pM	6 of 6
GFTLKSYGIS	VIYADGRRTFYGDSVK	GEAAGTFDS	670 pM	6 of 6
GFDLNSYGIS	VIYSDGRRSFYGDSVK	GREAGTFDS	820 pM	6 of 6
GFSLNSYGIS	VIYSDGRRTFYADSVK	GQTAGTFDL	950 pM	6 of 6

A sequence that the file lists under several names has all its replicates pooled.
The authors averaged sequences with at least three values out of six and counted those with two or fewer as poor binders.
A sequence measured in both rounds can read differently, since the two assays cover different ranges.
Three control strains display no target. For all heavy chain designs, 1% of the pairings with them gave a signal, with a median of 120 nM and one signal in twenty below 7.0 nM, so weak values seen in few replicates may be background.
Of ten entries with the parent sequence, four were seen in most replicates (averages 2.2 nM to 240 nM), three in one and three in none, so single entries are noisy.